One molecule from ChEMBL document CHEMBL1126082, “Nucleosides and nucleotides. 107. 2-(cycloalkylalkynyl)adenosines: adenosine A2 receptor agonists with potent antihypertensive effects” (J Med Chem, 1992) can be followed below.

Protein sequences, listed by entry. Tags and fused reporters are not part of them. Lines headed by an entry give the natural chain unless they say otherwise; changes in a name come on top.
UniProt P29276: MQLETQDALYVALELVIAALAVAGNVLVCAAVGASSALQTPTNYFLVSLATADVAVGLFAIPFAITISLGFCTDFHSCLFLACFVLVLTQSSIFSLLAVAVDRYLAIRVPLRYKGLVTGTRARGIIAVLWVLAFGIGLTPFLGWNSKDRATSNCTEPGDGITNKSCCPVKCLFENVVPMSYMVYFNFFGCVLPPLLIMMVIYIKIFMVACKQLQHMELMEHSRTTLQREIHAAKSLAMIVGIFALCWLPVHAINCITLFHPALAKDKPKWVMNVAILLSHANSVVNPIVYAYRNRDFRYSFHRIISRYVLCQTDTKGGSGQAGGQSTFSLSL
UniProt P30543: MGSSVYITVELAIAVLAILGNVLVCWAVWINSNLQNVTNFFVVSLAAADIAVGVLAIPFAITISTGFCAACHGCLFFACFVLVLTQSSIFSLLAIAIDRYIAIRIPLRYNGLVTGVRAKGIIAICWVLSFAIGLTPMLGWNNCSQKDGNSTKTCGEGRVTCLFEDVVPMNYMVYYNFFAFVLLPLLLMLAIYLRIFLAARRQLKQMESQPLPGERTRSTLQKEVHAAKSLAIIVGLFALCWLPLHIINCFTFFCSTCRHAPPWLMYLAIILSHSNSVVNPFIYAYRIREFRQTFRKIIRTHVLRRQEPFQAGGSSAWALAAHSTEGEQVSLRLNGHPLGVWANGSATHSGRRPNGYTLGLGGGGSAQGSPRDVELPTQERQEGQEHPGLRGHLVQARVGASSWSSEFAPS

As a reminder, the pKi is −log10 of the Ki, conventionally taken in molar units. Lower therefore signals a high Ki.

The target of this experiment is Adenosine A2 receptor (Rattus norvegicus, UniProt P29276+P30543).

The structures appear in SMILES notation. pKi: −log10 of the molar value.

In turn, `CCCCC#Cc1nc(N)c2ncn([C@@H]3O[C@H](CO)[C@@H](O)[C@H]3O)c2n1` gave a pKi of 8.55.
